The list shows a part of the results, in another mix than the full data. Some structures show a salt or complex split into parts, the way the source records it. The source made the active and inactive calls.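 How the source made its calls: active means activity above about 14% (limit read from the data; passing the limit was not always enough); inactive means the rest.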
Biological target: Nuclear receptor subfamily 1 group D member 1 (Homo sapiens) (UniProt P20393)
Assay: Rev-erbα–DNA interaction modulation – biochemical, FITC-DNA, fluorescence polarization, uHTS, primary screen (AID 1259318);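 further: 0% = DMSO wells with 35 nM protein and 100% = DMSO wells with 750 nM protein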
Conditions: Rev-erbα–FITC-DNA binding, 90 min, at 10 µM, hits give high values

Sequences of proteins named here, by UniProt entry; tags and fusion partners are left off.
UniProt P20393, whole entry, looked up: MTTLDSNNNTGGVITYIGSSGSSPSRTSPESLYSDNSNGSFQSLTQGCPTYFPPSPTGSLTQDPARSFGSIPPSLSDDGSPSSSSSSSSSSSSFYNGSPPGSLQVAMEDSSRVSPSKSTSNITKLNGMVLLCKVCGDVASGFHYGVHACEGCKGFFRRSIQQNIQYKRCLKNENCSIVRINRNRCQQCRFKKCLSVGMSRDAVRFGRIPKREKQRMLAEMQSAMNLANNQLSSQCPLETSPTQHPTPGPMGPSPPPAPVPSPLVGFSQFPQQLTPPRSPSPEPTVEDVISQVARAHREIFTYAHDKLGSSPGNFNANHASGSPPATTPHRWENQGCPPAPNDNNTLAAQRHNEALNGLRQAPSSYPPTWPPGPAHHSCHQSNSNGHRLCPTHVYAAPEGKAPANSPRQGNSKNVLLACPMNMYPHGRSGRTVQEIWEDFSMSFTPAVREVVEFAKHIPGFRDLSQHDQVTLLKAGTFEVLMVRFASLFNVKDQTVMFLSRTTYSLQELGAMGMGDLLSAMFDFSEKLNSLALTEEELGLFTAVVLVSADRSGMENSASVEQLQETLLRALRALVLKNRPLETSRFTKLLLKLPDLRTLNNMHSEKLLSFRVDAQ

| Structure (SMILES) | activity |
| --- | --- |
| CP(=O)(OC12CC3CC(CC(C3)C1)C2)OC12CC3CC(CC(C3)C1)C2 | inactive: 4.76% |
| CCOC(=O)c1ccc(NP(C)(=O)Oc2ccc(Cl)cc2)cc1 (stereo not drawn) | inactive: -0.04% |
| Nc1ccc2c(ccc3cccnc32)n1.O=[N+]([O-])c1cc([N+](=O)[O-])c(O)c([N+](=O)[O-])c1 | inactive: -1.71% |
| CP(=O)(Oc1ccccc1)N1CCOC1=O (stereo not drawn) | inactive: -3.81% |
| CCc1ccc(OP(C)(=O)Nc2cccnc2)cc1 (stereo not drawn) | inactive: -5.62% |
| COc1ccccc1OP(C)(=O)Nc1c(C)n(C)n(-c2ccccc2)c1=O (stereo not drawn) | inactive: -0.63% |
| OCCSCCO | inactive: -2.21% |
| O=C(OCCCN1CCCC1)C(O)(c1ccccc1)C1CCCCC1 (stereo not drawn) | inactive: -2.97% |
| COc1ccc(OP(C)(=O)Nc2ccc(Br)cc2)cc1 (stereo not drawn) | inactive: -2.56% |
| CN(C)C(=O)c1c([N+](=O)[O-])cc([N+](=O)[O-])cc1[N+](=O)[O-] | inactive: -1.17% |
| CP(=O)(Nc1ccc(Cl)cc1)Oc1ccc(F)cc1 (stereo not drawn) | inactive: 0.16% |
| COc1ccccc1OP(C)(=O)Nc1ccccc1Br (stereo not drawn) | inactive: -3.48% |
| CC(C)(C)c1ccc(OP(C)(=O)O)cc1 | inactive: -4.3% |
| CN(C)CCOC(=O)C(O)(c1ccccc1)C1CCCC1 (stereo not drawn) | inactive: 5.27% |
| COc1ccc(OP(C)(=O)Nc2ccccn2)cc1 (stereo not drawn) | inactive: -0.22% |
| COc1ccccc1OP(C)(=O)Nc1ccc(Br)cc1 (stereo not drawn) | inactive: 1.25% |
| CCc1ccc(OP(C)(=O)O)cc1 | inactive: -1.75% |
| CP(=O)(Nc1ccccn1)Oc1ccccc1 (stereo not drawn) | inactive: 3.92% |
| COc1ccccc1OP(C)(=O)Nc1ccc(C)cc1C (stereo not drawn) | inactive: -3.58% |
| Cc1c(NP(C)(=O)Oc2ccc(C(C)C)cc2)c(=O)n(-c2ccccc2)n1C (stereo not drawn) | inactive: 2.47% |
| O=[N+]([O-])c1cc([N+](=O)[O-])c(Nc2ccccn2)c([N+](=O)[O-])c1 | inactive: -3.73% |
| COc1ccc(OP(C)(=O)Nc2ccccc2Br)cc1 (stereo not drawn) | inactive: 0.88% |
| COc1ccccc1OP(C)(=O)Nc1ccc(C)c(C)c1 (stereo not drawn) | inactive: -0.71% |
| O=C1C(O)=C([N+](=O)[O-])C(=O)C(O)=C1[N+](=O)[O-] | inactive: -12.6% |
| Cc1cc(C)cc(OP(C)(=O)Nc2cccc(C(F)(F)F)c2)c1 (stereo not drawn) | inactive: 2.63% |

| Structure (SMILES) | activity |
| --- | --- |
| CCCCCCCCCCCCCCCC1C[N+](C)(C)CCOP(C)(=O)O1 (stereo not drawn) | inactive: -0.78% |
| CP(=O)(Nc1ccc(Cl)cc1Cl)Oc1ccccc1 (stereo not drawn) | inactive: -1.84% |
| CP(=O)(OCCOc1ccccc1)OCCOc1ccccc1 | inactive: 1.44% |
| COc1ccc(OP(C)(=O)Nc2ccc(SC(F)(F)F)cc2)cc1 (stereo not drawn) | inactive: 6.13% |
| CCOC(=O)c1ccc(NP(C)(=O)Oc2ccc(F)cc2)cc1 (stereo not drawn) | inactive: -2.03% |
| CCN(CC)CCCNc1ccccc1[N+](=O)[O-].O=[N+]([O-])c1cc([N+](=O)[O-])c(O)c([N+](=O)[O-])c1 | inactive: 0.47% |
| CCCCCOc1ccc(NP(C)(=O)Oc2ccc(Cl)cc2Cl)cc1 (stereo not drawn) | inactive: 2.7% |
| O=[N+]([O-])c1cc([N+](=O)[O-])c(OC2CCCCC2O)c([N+](=O)[O-])c1 (stereo not drawn) | inactive: 4.68% |
| CP(=O)(Nc1ccccc1)Oc1ccc(F)cc1 (stereo not drawn) | inactive: 1.55% |
| CCN(CC)CCCOC(=O)C(O)(c1ccccc1)C1CCCCC1 (stereo not drawn) | inactive: -0.3% |
| Cc1c([N+](=O)[O-])cc([N+](=O)[O-])c(Br)c1[N+](=O)[O-] | inactive: 0.63% |
| CC(C)c1ccc(OP(C)(=O)Nc2ccc(SC(F)(F)F)cc2)cc1 (stereo not drawn) | inactive: 2.11% |
| CP(=O)(Nc1ccccc1F)Oc1ccccc1 (stereo not drawn) | inactive: -2.51% |
| O=[N+]([O-])c1cc([N+](=O)[O-])c(Nc2ccc(Cl)cc2)c([N+](=O)[O-])c1 | inactive: 1.5% |
| COc1ccc2c(c1O)-c1c(O)c(OC)cc3c1[C@H](C2)[N+](C)(C)CC3.O=[N+]([O-])c1cc([N+](=O)[O-])c([O-])c([N+](=O)[O-])c1[O-] | inactive: -8.31% |
| O=C(OCCN1CCN(CCOCc2ccccc2)CC1)C(O)(c1ccccc1)c1ccccc1 | inactive: -0.36% |
| O=C(OC1CN2CCC1CC2)c1ccc([N+](=O)[O-])cc1 (stereo not drawn) | inactive: -2.47% |
| CCOP(=O)(CC)OCC | inactive: -2.75% |
| CCOP(C)(=S)SCC(=O)NC(C)(CC)C(=O)O (stereo not drawn) | inactive: 2.7% |
| CP(=O)(Nc1ccc(SC(F)(F)F)cc1)Oc1ccc(F)cc1 (stereo not drawn) | inactive: 0.77% |
| O=[N+]([O-])c1cc([N+](=O)[O-])c(C(F)(F)F)c([N+](=O)[O-])c1O | inactive: -1.67% |
| Cc1ccccc1NP(C)(=O)Nc1ccccc1C | inactive: 5.1% |
| CP(=O)(Nc1ccc2c(c1)OCCO2)Oc1ccccc1 (stereo not drawn) | inactive: 2.18% |
| COc1ccc(NP(C)(=O)Oc2ccccc2OC)cc1 (stereo not drawn) | inactive: 3.86% |
| CN(C)CCOC(=O)C(O)(c1ccccc1)C1CCCCC1 (stereo not drawn) | inactive: 6.69% |

| Structure (SMILES) | activity |
| --- | --- |
| COc1ccc(OP(C)(=O)Nc2cccc(Br)c2)cc1 (stereo not drawn) | inactive: -5.5% |
| Cc1c(C(c2ccc3c(c2)OCO3)c2c(C)n(C)n(-c3ccccc3)c2=O)c(=O)n(-c2ccccc2)n1C.O=[N+]([O-])c1cc([N+](=O)[O-])c(O)c([N+](=O)[O-])c1 | inactive: -3.22% |
| O=[N+]([O-])c1cc([N+](=O)[O-])c(NCC2CCS(=O)(=O)C2)c([N+](=O)[O-])c1 (stereo not drawn) | inactive: -0.56% |
| Cc1cc(-c2cccc3ccccc23)c(C)cn1.O=[N+]([O-])c1cc([N+](=O)[O-])c(O)c([N+](=O)[O-])c1 | inactive: 4.53% |
| O=[N+]([O-])c1ccc(OP2(=O)COCCO2)cc1 (stereo not drawn) | inactive: -2.25% |
| O=[N+]([O-])c1cc([N+](=O)[O-])c(Nc2nnnn2CCO)c([N+](=O)[O-])c1 | inactive: 4.76% |
| CCOC(=O)C(CC)C1=NC(C)(C)Cc2ccccc21.O=[N+]([O-])c1cc([N+](=O)[O-])c(O)c([N+](=O)[O-])c1 (stereo not drawn) | inactive: -1.87% |
| CCCOc1ccc(NP(C)(=O)Oc2ccc(Cl)cc2)cc1 (stereo not drawn) | inactive: -3.7% |
| CP(=O)(Nc1ccc(SC(F)(F)F)cc1)Oc1ccccc1 (stereo not drawn) | inactive: 3.21% |
| COc1ccc(-c2ccccn2)cc1.O=[N+]([O-])c1cc([N+](=O)[O-])c(O)c([N+](=O)[O-])c1 | inactive: 2.81% |
| COc1ccccc1OP(C)(=O)Nc1c(C)cccc1C (stereo not drawn) | inactive: 4.54% |
| CN1CCCCC1COC(=O)C1(O)c2ccccc2CCc2ccccc21 (stereo not drawn) | inactive: 3.67% |
| CN(Cc1cccnc1)C(=O)COc1ccc(Cl)c(Cl)c1.O=[N+]([O-])c1cc([N+](=O)[O-])c(O)c([N+](=O)[O-])c1 | inactive: -1.55% |
| O=[N+]([O-])c1cc([N+](=O)[O-])c(-n2nnc3ccccc32)c([N+](=O)[O-])c1 | inactive: -0.2% |
| Cc1nc2ccc3ccccc3c2s1.O=[N+]([O-])c1cc([N+](=O)[O-])c(O)c([N+](=O)[O-])c1 | inactive: 9.03% |
| O=[N+]([O-])c1cc([N+](=O)[O-])c(-c2cnn(-c3ccccc3)c2)c([N+](=O)[O-])c1 | inactive: 2.83% |
| Cc1cc(C)cc(OP(C)(=O)Nc2ccc(C)cc2C)c1 (stereo not drawn) | inactive: -2.32% |
| CCOC(=O)c1ccc(NP(C)(=O)Oc2cc(C)cc(C)c2)cc1 (stereo not drawn) | inactive: 4.62% |
| COc1ccccc1OP(C)(=O)Nc1cccc(Br)c1 (stereo not drawn) | inactive: 3.19% |
| Cc1cc(C)cc(OP(C)(=O)Nc2ccccn2)c1 (stereo not drawn) | inactive: -0.64% |
| CP(=O)(Nc1cccc(Br)c1)Oc1ccccc1 (stereo not drawn) | inactive: -8.96% |
| Cc1ccc(C)c(NP(C)(=O)Oc2ccccc2)c1 (stereo not drawn) | inactive: 0.21% |
| O=C(O)c1cccc(Nc2c([N+](=O)[O-])cc([N+](=O)[O-])cc2[N+](=O)[O-])c1 | inactive: 5.56% |
| CC1=NCCc2c1[nH]c1ccccc21.O=[N+]([O-])c1cc([N+](=O)[O-])c(O)c([N+](=O)[O-])c1 | inactive: 0.45% |
| CC(C)(C)c1ccc(OP(C)(=O)Nc2ccc(SC(F)(F)F)cc2)cc1 (stereo not drawn) | inactive: 1.71% |

| Structure (SMILES) | activity |
| --- | --- |
| Cc1cccc(C)c1OP(C)(N)=O (stereo not drawn) | inactive: -0.01% |
| O=[N+]([O-])c1ccc2c(c1)C=Nc1ccccc1O2 | inactive: 0.58% |
| O=[N+]([O-])c1cc([N+](=O)[O-])c(Nc2cccnc2)c([N+](=O)[O-])c1 | inactive: 1.26% |
| COc1ccccc1OP(C)(=O)Nc1cc(Cl)ccc1C (stereo not drawn) | inactive: -6.69% |
| COc1ccc(OP(C)(=O)Nc2cccc(F)c2)cc1 (stereo not drawn) | inactive: 1.34% |
| Cc1cc(C)cc(OP(C)(N)=O)c1 (stereo not drawn) | inactive: 3.28% |
| CCOC(=O)c1ccc(NP(C)(=O)Oc2ccccc2)cc1 (stereo not drawn) | inactive: 0.34% |
| COc1ccccc1OP(C)(=O)Nc1ccc(C)cc1 (stereo not drawn) | inactive: -0.73% |
| Cc1ccc(NP(C)(=O)Oc2ccccc2)c(C)c1 (stereo not drawn) | inactive: -8.56% |
| COc1ccccc1-c1ccccn1.O=[N+]([O-])c1cc([N+](=O)[O-])c(O)c([N+](=O)[O-])c1 | inactive: -1.3% |
| CP(=O)(NC(=O)Nc1ccccc1)Oc1ccccc1 (stereo not drawn) | inactive: 1.93% |
| CCc1ccc(OP(C)(=O)N2CCN(c3ccc([N+](=O)[O-])cc3)CC2)cc1 (stereo not drawn) | inactive: 1.27% |
| Cc1cc(C)cc(OP(C)(=O)Nc2ccc(SC(F)(F)F)cc2)c1 (stereo not drawn) | inactive: 9.14% |
| Cc1cccc(C)c1OP(C)(=O)Nc1ccc(SC(F)(F)F)cc1 (stereo not drawn) | inactive: -2.25% |
| CP(=O)(Nc1ccc(SC(F)(F)F)cc1)Oc1ccc(Cl)cc1 (stereo not drawn) | inactive: 1.05% |
| CP(=O)(Oc1ccccc1)OC(c1ccccc1)C(F)(F)F (stereo not drawn) | inactive: -2.22% |
| CP(=O)(Nc1ccccn1)Oc1ccc(Cl)cc1 (stereo not drawn) | inactive: -2.26% |
| CCOP(C)(=S)SCC(=O)NC(C)C(=O)O (stereo not drawn) | inactive: -1.38% |
| CCOC(=O)c1ccc(NP(C)(=O)Oc2ccc(OC)cc2)cc1 (stereo not drawn) | inactive: 1.52% |
| O=[N+]([O-])c1cc([N+](=O)[O-])c(O)c([N+](=O)[O-])c1.c1ccc(Oc2ccncc2)cc1 | inactive: 2.73% |
| COc1ccccc1OP(C)(=O)Nc1ccccc1 (stereo not drawn) | inactive: 6.51% |
| CP(=O)(Nc1ccccc1Br)Oc1ccccc1 (stereo not drawn) | inactive: 6.61% |
| CP(=S)(Nn1cnnc1)Oc1ccccc1 (stereo not drawn) | inactive: -3.48% |
